Reference: patent publication US20210222208A1, “SUGAR-DERIVED STIMULANT FOR ENHANCEMENT OF AEROBIC AND ANAEROBIC FERMENTATION PERFORMANCE” (priority 2018, published 2021)

System: S. cerevisiae M11205
Assay type: cell-based, Saccharomyces cerevisiae

## OCCCCO[C@H]1O[C@H](CO)[C@@H](O)[C@H](O)[C@H]1O [FS-1, 4-hydrosbutyl glucopyranoside]
  Ethanol yield and lag phase compared with CE-1, CE-2 and control: distinct enhancement for ethanol yield as well as the elimination of the lag phase
  Time to complete conversion of sugars to ethanol: ≤ 24 h
